Measured values from patent publication US6515010B1, “Carvedilol methanesulfonate” (SmithKline Beecham Corporation, priority 1999, dated 2003).

Assay: Aqueous solubility at 25° C. of carvedilol and its salt forms
Details: for solubility: purified water at 25° C.

carvedilol methanesulfonate
Aqueous Solubility (25° C., water, time 0.5 hr): 8170 µg/mL
Aqueous Solubility (25° C., water, time 1 hr): 8400 µg/mL
Aqueous Solubility (25° C., water, time 4 hr): 8670 µg/mL
Aqueous Solubility (25° C., water, time 24 hr): 8700 µg/mL
Aqueous Solubility (25° C., water, time 70 hr): 11200 µg/mL
solubility: > 8000 µg/mL
solubility (listed as methanesulfonate salt of carvedilol): > 8000 µg/mL
aqueous solubility (in words) (water, 25° C.): significantly higher aqueous solubility
